Results taken from patent publication US10941153B2, “Substituted phenethylamine derivatives” (REGENTS OF THE UNIVERSITY OF MINNESOTA, priority 2018, dated 2021).
pKi: −log10 of the molar value. Where two headings read alike, the source gives them in different places.

Sequences of proteins named here, by UniProt entry; tags and fusion partners are left off. Residues count along the entry.
UniProt Q99720, whole entry: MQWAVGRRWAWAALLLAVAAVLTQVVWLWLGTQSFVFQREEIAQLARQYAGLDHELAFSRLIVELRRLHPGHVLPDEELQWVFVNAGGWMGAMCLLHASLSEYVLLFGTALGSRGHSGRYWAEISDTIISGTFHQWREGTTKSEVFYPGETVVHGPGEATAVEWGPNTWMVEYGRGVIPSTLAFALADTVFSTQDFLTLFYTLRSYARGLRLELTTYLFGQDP
UniProt P08908, whole entry: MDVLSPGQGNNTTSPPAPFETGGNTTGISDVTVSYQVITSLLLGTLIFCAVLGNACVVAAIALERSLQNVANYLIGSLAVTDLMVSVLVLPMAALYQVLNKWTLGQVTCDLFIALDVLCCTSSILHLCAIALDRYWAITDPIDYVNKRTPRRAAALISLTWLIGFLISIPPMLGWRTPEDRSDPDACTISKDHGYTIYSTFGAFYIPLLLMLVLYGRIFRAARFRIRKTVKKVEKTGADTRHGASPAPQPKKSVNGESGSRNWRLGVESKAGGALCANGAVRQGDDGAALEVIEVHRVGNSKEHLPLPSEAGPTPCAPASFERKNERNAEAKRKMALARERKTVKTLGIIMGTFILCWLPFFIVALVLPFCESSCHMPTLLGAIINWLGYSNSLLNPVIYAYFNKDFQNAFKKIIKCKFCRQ
UniProt P34969, 1-445 isoform 2: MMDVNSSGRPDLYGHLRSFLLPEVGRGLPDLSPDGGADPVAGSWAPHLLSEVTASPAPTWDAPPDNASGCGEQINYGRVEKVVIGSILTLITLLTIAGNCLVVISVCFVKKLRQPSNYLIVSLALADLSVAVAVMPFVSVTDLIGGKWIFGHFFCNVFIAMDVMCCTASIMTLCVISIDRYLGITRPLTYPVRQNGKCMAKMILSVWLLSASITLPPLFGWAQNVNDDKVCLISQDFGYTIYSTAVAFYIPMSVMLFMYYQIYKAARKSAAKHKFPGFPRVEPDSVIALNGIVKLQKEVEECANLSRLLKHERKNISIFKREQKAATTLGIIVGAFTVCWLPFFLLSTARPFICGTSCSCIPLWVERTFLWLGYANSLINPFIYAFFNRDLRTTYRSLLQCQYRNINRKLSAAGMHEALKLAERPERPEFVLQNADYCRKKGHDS
UniProt P41595, whole entry: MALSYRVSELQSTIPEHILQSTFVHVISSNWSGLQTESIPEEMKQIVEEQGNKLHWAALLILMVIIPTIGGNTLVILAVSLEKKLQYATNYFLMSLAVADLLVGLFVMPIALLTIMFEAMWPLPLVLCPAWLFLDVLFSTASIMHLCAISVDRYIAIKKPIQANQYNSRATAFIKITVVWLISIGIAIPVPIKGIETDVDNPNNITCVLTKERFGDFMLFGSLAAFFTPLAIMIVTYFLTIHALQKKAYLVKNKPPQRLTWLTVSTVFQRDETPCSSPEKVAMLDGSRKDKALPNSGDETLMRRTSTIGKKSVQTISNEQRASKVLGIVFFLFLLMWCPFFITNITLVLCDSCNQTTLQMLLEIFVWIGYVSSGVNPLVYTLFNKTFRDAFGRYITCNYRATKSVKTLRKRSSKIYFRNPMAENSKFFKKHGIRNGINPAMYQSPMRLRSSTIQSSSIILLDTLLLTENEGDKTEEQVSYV

Assays:
σ1 receptor [1] = assay: PDSP binding affinity, sigma-1; parameters: species or system human
σ1 receptor [2] = molecular target: σ1 receptor (UniProt Q99720); assay: PDSP binding affinity, sigma-1; parameters: species or system human
5-HT1A receptor = 5-HT1A receptor (Homo sapiens, UniProt P08908); assay: PDSP GPCR binding affinity, 5-HT1A
σ2 receptor = assay: PDSP binding affinity, sigma-2; parameters: species or system human; conditions: read-out: Ki, Sigma-2
5-HT7 receptor = 5-HT7 receptor (Homo sapiens, UniProt P34969); assay: PDSP GPCR binding affinity, 5-HT7
661W cells = assay: Neuroprotection in 661W retinal cells under oxidative stress
[3] = test system: human GPCR (serotonin, adrenergic, dopamine, histamine, muscarinic, opioid, sigma and others); assay: PDSP broad GPCR screen; conditions: wider array of GCPR, Table 5
5-HT2B receptor = 5-HT2B receptor (Homo sapiens, UniProt P41595); assay: PDSP GPCR binding affinity, 5-HT2B
Source text: In particular, the Ki (nM) value is provided. […] FIGS. 14-15 are graphical views of Log P vs. Ki, 5-HT2B receptor and Log P vs. Ki, sigma-1 receptor, respectively, summarizing the data presented in Table 6, according to one or more embodiments of the present disclosure. Assay data for compound 53545 against 5-HT7A receptor is presented in FIG. 18 and Tables 8-9 provided below:
Assay data for compound 53529 against 5-HT2B receptor is presented in FIG. 22 and Tables 12-13 provided below: […]

[4] = read-out: Ki, Target 5-HT1A (second line so labelled in Tables 9, 11, 13), second of three table lines printed as 5-HT1A
[5] = read-out: Ki, Target 5-HT1A (third line so labelled in Tables 9, 11, 13), third of three table lines printed as 5-HT1A

SMILES	pKi (5-HT1A receptor; read-out: Ki, 5-HT1A)	pKi (σ1 receptor [2]; read-out: Ki, Sigma-1)	pKi (5-HT1A receptor; [4])	pKi (σ2 receptor)	pKi (5-HT1A receptor; [5])	other results
CC[C@H]1c2cc(-c3ccccc3)ccc2OC[C@@]1(C)N (relative stereo)						selectivity for σ1 relative to the 5-HT2B receptor (σ1 receptor [1]; 5-HT2B was the second most sensitive receptor assayed): 10 fold
C[C@@]12COc3ccc(OCc4ccccc4)cc3[C@@H]1CCN2 (relative stereo)		8.17	6.35	6.90		pKi (σ1 receptor [2]; read-out: Ki (Table 10), sigma-1 receptor, competition binding curve, haloperidol as reference): 8.19
COc1cc(OC)c2c(c1)OC[C@@]1(C)NCC[C@@H]21 (relative stereo)						selectivity for σ1 vs other GCPR (vs 5-HT2B) (σ1 receptor [1]): > 5 fold; σ1 vs σ2 selectivity (σ1 receptor [1]): > 200 fold; neuroprotective properties in 661W cells (661W cells): neuroprotective; activity across the additional GCPR investigated [3]: minimal activity
CC[C@H]1c2ccc3ccccc3c2OC[C@@]1(C)N (relative stereo)	5.66	5.41	8.47	6.29	6.02	pKi (5-HT2B receptor; read-out: Ki (Table 12), 5-HT2B receptor, competition binding curve, SB 206553 as reference): 8.47; selectivity for 5-HT2B relative to the σ2 receptor (5-HT2B receptor; σ2 was the second most sensitive GPCR assayed): 150 fold

Continued, in another order:

pKi (5-HT1A receptor; read-out: Ki, 5-HT1A)	SMILES	pKi (σ1 receptor [2]; read-out: Ki, Sigma-1)	pKi (5-HT1A receptor; [4])	pKi (σ2 receptor)	pKi (5-HT1A receptor; [5])	other results
6.74	CN1CC[C@H]2c3ccccc3N(c3ccccc3)C[C@]21C (relative stereo)	6.87	6.69	6.82	8.62	fold selective (Table 9) (5-HT7 receptor; compound 53545, among the five targets of Table 9): >50 fold selective; pKi (5-HT7 receptor; read-out: Ki (Table 8), 5-HT7A receptor, competition binding curve, clozapine as reference): 8.62
7.14	CC[C@H]1c2ccccc2N(c2ccccc2)C[C@@]1(C)N (relative stereo)					selectivity for 5-HT1A over 5-HT7 (5-HT1A receptor): 15 fold
